# Measured values from PubChem BioAssay AID588497 (NMMLSC, 2011).
# Only a part is listed here, and it is no random draw. Some results for these compounds are left out of this collection, so the calls shown say nothing about other tests. Inconclusive results are not listed. The source made the active and inactive calls. Rule as the data show it: active = inhibition above about 35% (passing the limit was not always enough); inconclusive = no clear call, values can overlap the other calls.
# System: Botulinum neurotoxin type F light chain protease (Clostridium botulinum)
# Assay: BoNT/F light chain protease inhibitors, primary screen, biochemical, flow cytometry, MLPCN library (AID 588497); also: plate controls were buffer without enzyme for full effect and enzyme alone for no effect
# Conditions: Multiplex microsphere protease cleavage assay, at 10 µM, stronger effect = higher value
row,SMILES,inhibition
1,O=C(OC1CN2CCC1CC2)C(CO)(c1ccccc1)c1ccccc1 (centres undefined),inactive: 1.5%
2,CC(C)Oc1ccc(C(=O)NCC2(N(C)C)CCCCC2)cc1,inactive: -13.3%
3,O=C(OCCN1CCCC1)C(O)(c1ccccc1)c1ccccc1,inactive: 3.9%
4,CN(C)c1cccc(C(=O)NCC2(N(C)C)CCCCC2)c1,inactive: 0.7%
5,C=C(C)C#CC(O)(C(=O)OC1CCN(C)CC1)c1ccccc1 (centres undefined),inactive: 3.9%
6,COc1ccc(Br)c(C(=O)NCC2(N3CCCCC3)CCCCC2)c1,inactive: 8.5%
7,COc1cc(C(=O)NCC2(N(C)C)CCCCC2)c([N+](=O)[O-])cc1OC,inactive: -19%
8,CN(C)C1(CNC(=O)c2ccc(Br)cc2)CCCCC1,inactive: 25%
9,O=C(NCC1(N2CCCCC2)CCCCC1)c1cccc(Cl)c1,inactive: 21.7%
10,COc1cccc(C(=O)NCC2(N3CCCCC3)CCCCC2)c1,inactive: 0.9%
11,COc1ccc(Cl)cc1C(=O)NCC1(N(C)C)CCCCC1,inactive: -15.2%
12,Cc1ccccc1C(=O)NCC1(N2CCCCC2)CCCCC1,inactive: -0.1%
13,CN(C)C1CCCC1OC(=O)C(O)(c1ccccc1)c1ccccc1 (centres undefined),inactive: -7.4%
14,COc1ccc(C(=O)NCC2(N(C)C)CCCCC2)cc1,inactive: 8%
15,Cc1cc(C(=O)NCC2(N3CCCCC3)CCCCC2)ccc1[N+](=O)[O-],inactive: -17.5%
16,CCN1CCCC(OC(=O)C2(O)c3ccccc3C=Cc3ccccc32)C1 (centres undefined),inactive: -1.9%
17,O=C(NCC1(N2CCCCC2)CCCCC1)c1cccc(Br)c1,inactive: 2.6%
18,C=CCN1CCN(CCOC(=O)C(O)(c2ccccc2)c2ccccc2)CC1,inactive: -0.5%
19,O=C(NCC1(N2CCCCC2)CCCCC1)c1cc(F)c(F)cc1Cl,inactive: 0.3%
20,CN1[C@@H]2CC[C@H]1CC(OC(=O)C(O)(c1ccccc1)c1ccccc1)C2 (some centres undefined),active: 35%
21,O=C(NCC1(N2CCCCC2)CCCCC1)c1cc([N+](=O)[O-])ccc1Cl,inactive: -6.8%
22,Cc1ccc(C(=O)NCC2(N3CCCCC3)CCCCC2)cc1,inactive: 4%
23,CCN(CC)CC(C)C(C)OC(=O)C(O)(c1ccccc1)c1ccccc1 (centres undefined),inactive: -1.8%
24,COc1cc(SC)ccc1C(=O)NCC1(N(C)C)CCCCC1,inactive: 9.1%
